Read-outs that look alike come from different tables or passages of the source.
Tested on: apoB mRNA editing
Procedure: Protein phosphatase inhibitor studies. […] The compounds' effects on apoB mRNA editing were evaluated by RT-PCR and poisoned-primer extension analysis (Sowden et al. Rna 2:274-88 (1996)). The effect of 470 nM cantharidin on ACF subcellular distribution was investigated by treating primary hepatocyte cultures for 6 hours followed by nuclear and cytoplasmic extract preparation.
It was reasoned that if phosphorylation of ACF regulated editing activity, treatment of rat primary hepatocytes with phosphatase inhibitors might stimulate apoB mRNA editing activity. […] The experiments (n=4-6) were done over a number of months and therefore represent primary hepatocytes from several rats.
Editing activity was quantified from primary hepatocytes incubated with 10-100-times the EC50 of the various […] (Calbiochem).

CC(C)NCC(O)c1ccc(O)c(O)c1 (stereo not drawn) [Isoproterenol]
apoB mRNA editing, Mean (1 μM): 60.6% | apoB mRNA editing, Mean (10 μM): 68.1% | apoB mRNA editing, Mean (100 μM): 72.3%

From US20090075925A1, “Methods and Compositions Related to APOBEC-1 Expression” (priority 2006, published 2009)
